Values quoted from earlier work as cited in patent publication US20080269167A1, “Preparation Comprising Iron(III) Complex Compounds And Redox-Active Substance(s)” (VIFOR (INTERNATIONAL) AG, priority 2005, published 2008).

Settings: 3 mg of Fe from maize porridge meal, cited from earlier work

Substance: iron(III) hydroxide
- absorption of Fe (with addition of 100 mg of ascorbic acid): 10.5%
- absorption of Fe (without ascorbic acid): 0.4%

Where two headings read alike, the source gives them in different places.
